Experimental data published in patent US10913711B2, “Potent and selective inhibitors of monoamine transporters; method of making; and use thereof” (priority 2013, dated 2021).

By UniProt entry, the sequences of proteins in these tests, tags left out.
UniProt P23977, whole entry: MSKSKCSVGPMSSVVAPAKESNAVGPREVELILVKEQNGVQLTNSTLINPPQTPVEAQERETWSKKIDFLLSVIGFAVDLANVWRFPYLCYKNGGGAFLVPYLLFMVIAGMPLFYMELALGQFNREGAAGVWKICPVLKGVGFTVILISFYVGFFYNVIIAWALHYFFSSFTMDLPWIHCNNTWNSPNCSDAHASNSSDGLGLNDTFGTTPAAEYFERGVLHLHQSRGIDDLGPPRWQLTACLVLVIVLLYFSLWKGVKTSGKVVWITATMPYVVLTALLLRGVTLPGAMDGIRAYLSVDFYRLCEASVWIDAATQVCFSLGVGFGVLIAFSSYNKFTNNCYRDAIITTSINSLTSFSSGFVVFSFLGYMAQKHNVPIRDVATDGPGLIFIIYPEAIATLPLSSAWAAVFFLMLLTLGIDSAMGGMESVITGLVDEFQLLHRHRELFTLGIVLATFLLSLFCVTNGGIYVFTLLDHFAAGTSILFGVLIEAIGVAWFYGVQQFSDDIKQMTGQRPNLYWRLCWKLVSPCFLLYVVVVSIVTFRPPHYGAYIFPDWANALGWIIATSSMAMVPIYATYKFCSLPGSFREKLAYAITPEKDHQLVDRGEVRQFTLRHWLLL
UniProt Q9WTR4, entry or part of it: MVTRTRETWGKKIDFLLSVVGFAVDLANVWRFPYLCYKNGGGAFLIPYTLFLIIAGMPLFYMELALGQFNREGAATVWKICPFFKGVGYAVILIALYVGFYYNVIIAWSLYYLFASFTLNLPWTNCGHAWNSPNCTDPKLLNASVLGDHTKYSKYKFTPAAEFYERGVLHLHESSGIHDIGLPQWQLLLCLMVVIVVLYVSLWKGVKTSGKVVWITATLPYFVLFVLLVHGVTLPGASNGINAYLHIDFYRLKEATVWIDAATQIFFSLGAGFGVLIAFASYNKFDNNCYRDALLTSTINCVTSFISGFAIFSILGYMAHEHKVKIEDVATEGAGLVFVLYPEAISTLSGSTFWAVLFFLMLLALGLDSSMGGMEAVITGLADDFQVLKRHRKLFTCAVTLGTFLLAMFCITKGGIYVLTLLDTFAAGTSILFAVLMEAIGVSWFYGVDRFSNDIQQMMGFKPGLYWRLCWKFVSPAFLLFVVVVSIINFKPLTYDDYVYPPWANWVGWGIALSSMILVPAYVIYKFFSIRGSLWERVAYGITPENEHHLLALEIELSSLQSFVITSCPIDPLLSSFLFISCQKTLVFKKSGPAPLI

Experiments:
DAT = DAT (Rattus norvegicus (Rat), UniProt P23977); test: Dopamine Transporter Binding Assay ([3H]WIN 35428, rat striatal membranes); conditions: selectivity ratio of Ki values, rat brain membranes
NET = NET (Rattus norvegicus (Rat), UniProt Q9WTR4); test: Norepinephrine Transporter Binding Assay ([3H]Nisoxetine, rat frontal cortex membranes)

Row | Compound | Ki (NET) | also measured
1 | NC(=O)CSC(c1cccc(Cl)c1)c1cccc(Cl)c1 [Compound 2e, 2-((Bis(3-chlorophenyl)methyl)thio)acetamide] |  | NET/DAT (DAT): ≥ 123
2 | O=C(CSC(c1ccccc1)c1ccccc1)N1CCN(CCCc2ccccc2)CC1 [Compound 11a, 2-(Benzhydrylthio)-1-(4-(3-phenylpropyl)piperazin-1-yl)ethan-1-one] | 22.6 ± 3.01 µM | 
3 | NC(=O)C[S+]([O-])C(c1ccccc1)c1ccccc1 (racemic) [(±)-modafinil, 2-[(diphenylmethyl)sulfinyl]acetamide, reference compound] | > 100 µM | 
4 | CCCCNCC[S+]([O-])C(c1ccccc1)c1ccccc1 (stereo not shown) [Compound 5b, N-(2-(benzhydrylsulfinyl)ethyl)butan-1-amine] |  | SERT/DAT (DAT): 41
